These results are taken from US7317028B2, “Cell differentiation inducer” (Schering Aktiengesellschaft, priority 1996, dated 2008).

The test system of the test is A2780 cells. Briefly: Test for induction of differentiation in A2780 cells (ALP activity, ALPmin). The format is cell-based. The note with it: Homo sapiens, A2780, 72 h, read-out: ALPmin. Here is the method:
Increase of alkaline phosphatase (ALP) activity is known as an indicator for differentiation of human colon cancer cells. […] Thus, differentiation inducing action was evaluated using ALP activity as an indicator.
To each well of a 96-well plate was placed 0.1 mL of A2780 cells (15,000 cells/well) and the next day was added 0.1 mL of a sequential dilute of test solution with the medium. […] The reaction was quenched with 0.05 mL/well of 3N sodium hydroxide aq. For each well, an absorbance at 405 nm was measured to determine the minimum concentration of the drug inducing increase of ALP activity (ALPmin).

Take `O=C(NCc1ccc(C(=O)Nc2ccccc2O)cc1)OCc1cccnc1` [Example 82, N-(2-hydroxyphenyl)-4-[N-(pyridin-3-yl)methoxycarbonylaminomethyl]benzamide]: the minimal effective concentration worked out at 1 µM.
